## Binding of CDR-mutated scFvs to a peptide of the spike HR2 region

Source: Engelhart et al. 2022 (doi:10.1038/s41597-022-01779-4), MIT Lincoln Laboratory and A-Alpha Bio; data file from the FLAb repository.

Antigen: PDVDLGDISGINAS, a 14-residue peptide of the SARS-CoV-2 spike HR2 region.

Each scFv is VH, the linker GGGGSGGGGSGGGGS, VL, as in the parent Ab-95, and differs from it in the CDRs of the light chain only.
VH: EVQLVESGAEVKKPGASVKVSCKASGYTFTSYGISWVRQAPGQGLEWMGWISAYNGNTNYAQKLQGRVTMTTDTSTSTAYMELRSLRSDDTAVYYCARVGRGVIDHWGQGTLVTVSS
VL: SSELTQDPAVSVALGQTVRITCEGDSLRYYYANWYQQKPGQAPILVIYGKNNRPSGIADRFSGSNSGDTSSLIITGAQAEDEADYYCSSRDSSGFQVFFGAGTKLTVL

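AAYL52 was designed without a model: most single CDR substitutions and a random sample of double and triple ones. In AlphaSeq, yeast of one mating type display the scFv and yeast of the other type display the target. Binding brings cells together so that they mate, and sequencing counts the barcode pairs among the diploids. A regression on co-assayed BCL2-family reference pairs converts the normalised counts of each replicate to an apparent Kd. Mating was done three times.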

Variants are written as CDR1, CDR2 and CDR3 of the light chain (limits as in the source). Parent: EGDSLRYYYAN, GKNNRPS, SSRDSSGFQVF. Each Kd is an estimate from the mating assay, the geometric mean of the replicates in which the pair was seen; lower is stronger. "nd" marks a missing value. The strain was present, yet no cells mated with the target were sequenced in any replicate, which points to weak or no binding. The list is sorted by this average, lowest first, undetected variants last. In this assay the parent's reference entry averaged 200 nM; its copy inside this library read 180 nM. Three control strains display no target. For library AAYL52, 28% of the pairings with them gave a signal, with a median of 8.2 µM and one signal in twenty below 800 nM, so weak values seen in few replicates may be background.

| CDR-L1 | CDR-L2 | CDR-L3 | Kd | replicates with signal |
|---|---|---|---|---|
| EGDSLRYYEAN | GKNNRPS | SFRDSSGFQVR | 21 nM | 3/3 |
| EGDSLRYYTAN | GKNERPS | SSRDSSLFQVF | 44 nM | 3/3 |
| EGDSLWYTYAN | GKNNRPS | SSRDSSGFFVF | 130 nM | 3/3 |
| EGDSVRYYYAY | GKNNRPK | SSRDSSGFQVF | 170 nM | 3/3 |
| EGDSLRYYYAN | GANNRPS | SSRDSSGFQVE | 170 nM | 3/3 |
| EGDSLVYKYIN | GKNNRPS | SSRDSSGFQVF | 210 nM | 3/3 |
| EGDSLRYYVKN | GKNNRPS | SGRDSSGFQVF | 250 nM | 3/3 |
| EGDSLRYYYAN | GKNNRPS | SPRDSFGFQFF | 290 nM | 3/3 |
| EGDFLRYYYAN | SKNNRPS | SSRDGSGFQVF | 330 nM | 3/3 |
| EGDSLRAYYAN | GKNNRPS | FSRDSTGFQVF | 340 nM | 3/3 |
| EGDSLSYAYAN | GKLNRPS | SSRDSSGFQVF | 510 nM | 3/3 |
| EGDSLRYYYAN | GKNFRPS | SSRDSSGAQVF | 570 nM | 3/3 |
| EGDSLRYYYAN | GKQNRPS | SSRDSSGYQVS | 640 nM | 3/3 |
| EGDSLRYDYAN | GKNNRLS | SSRASSGFQVF | 670 nM | 2/3 |
| EGDSLAYYYAN | GKNNRPS | SSDDSSGFQVC | 680 nM | 3/3 |
| EGDSLRYYYLN | GKNFRPS | SSRDSSGRQVF | 730 nM | 1/3 |
| EGDSLRYYYAN | GKNGRPS | SSNDSSGFQVF | 910 nM | 3/3 |
| EGDSLRYYYAN | GKNNRRS | SSRDSEDFQVF | 910 nM | 3/3 |
| EGDSLIYYYAN | GKNNRPS | SSRDSSGFQKQ | 970 nM | 1/3 |
| EGVSLRYLYAN | GKNNRPS | SSRDSSGAQVF | 1.3 µM | 3/3 |
| RGDSLRYYYAN | GKVNRPS | SSRWSSGFQVF | 1.3 µM | 3/3 |
| EWDSLRYYYAN | GKNTRPS | SSRDSSGFQVF | 1.3 µM | 3/3 |
| EGFSLRYYYAN | GKNTRPS | SSRDSSGFQYF | 1.4 µM | 2/3 |
| EGDSLRYFYAN | GKNNRPS | SSRDSSGFHVF | 1.5 µM | 3/3 |
| EGDFLRYYYAN | GINNRPS | SSRMSSGFQVF | 1.5 µM | 2/3 |
| EGDSLRYYYAN | GKNNTPS | SSRDSSGIRVF | 1.7 µM | 3/3 |
| EGDSLRYYYGN | GKNNRPS | SSRDSSGFQDT | 1.7 µM | 3/3 |
| EGDVLRYYYAN | GANNRPS | SSRDSSGTQVF | 1.8 µM | 1/3 |
| EGGSLRYYYAN | VKNTRPS | SSRDSSGFQVF | 1.9 µM | 2/3 |
| EGDSLRYYYAN | GKNNRFT | SSRDSSGFQEF | 2.1 µM | 2/3 |
| EGDSLRYYYKN | GKNNRWS | SSRDSSGNQVF | 2.1 µM | 1/3 |
| EGDSLRYYYAN | GKPNRPS | SSRDSSGFWVF | 3.0 µM | 2/3 |
| EGDSLTYYYAN | GKNNFHS | SSRDSSGFQVF | 3.2 µM | 1/3 |

Second part, the sequence after the result:

| Kd | replicates with signal | CDR-L1 | CDR-L2 | CDR-L3 |
|---|---|---|---|---|
| 3.2 µM | 1/3 | KGDSERYYYAN | GKINRPS | SSRDSSGFQVF |
| 5.6 µM | 1/3 | EGDSLRYYYAV | AKNNRPS | SSRDSSGFQVQ |
| 6.1 µM | 1/3 | EIDSLRYYYAN | GKNNRPS | PSRDSSGFQRF |
| 7.4 µM | 1/3 | EGDSLRYYYAN | LKNNRSS | SSRDSSGFQVI |
| 7.4 µM | 3/3 | EGDSVRYYYVN | GKNNRPS | SSRDSSGFQVF |
| 8.1 µM | 1/3 | EWDSLRYYYAN | SKNNRPS | SSRASSGFQVF |
| 8.3 µM | 2/3 | EGDSLRYYYAN | GKNNRPS | MSRFSSGFQVF |
| 8.4 µM | 3/3 | EGDSLRSYYAV | GKNNRPS | SSRDSSYFQVF |
| 8.6 µM | 3/3 | EGDSSRYYYAN | GKNNRVS | SSRDSSGYQVF |
| 9.1 µM | 1/3 | EGDSLRYYLAN | GKNNRPS | SERDSSGFQVA |
| 11 µM | 3/3 | EGDSLRYYYAN | GKVNRPS | SSEDSSGYQVF |
| 11 µM | 3/3 | EGDSLRYYYAN | GKLGRPS | SSRDSSGFCVF |
| 12 µM | 3/3 | EGDSLRYLYAN | GKNNRPS | WSRDSSGWQVF |
| 13 µM | 2/3 | EGDSLRYYYAS | GKNARPS | TSRDSSGFQVF |
| 15 µM | 1/3 | EGDSLRYYYAN | HKNNRPS | TSRDSSAFQVF |
| 20 µM | 1/3 | EGDSLRYYYAN | GKNPRPT | SSRDSSGGQVF |
| 29 µM | 2/3 | EGDSLRYYYAN | GKNNRPI | SSRGSSGFQSF |
| 33 µM | 2/3 | EGDSLRYYYAN | GKNNQPS | RSRDSLGFQVF |
| 85 µM | 2/3 | EGDSLTYYYWN | GKNNRPM | SSRDSSGFQVF |
| 100 µM | 2/3 | EGDSLWFYYSN | GKNNRPS | SSRDSSGFQVF |
| 110 µM | 3/3 | EDDSLRYYYAN | GWNNRPS | SSRNSSGFQVF |
| 210 µM | 1/3 | EGDSLRYYYAH | GKNNRPS | SGRQSSGFQVF |
| 220 µM | 1/3 | EGDKLRYYYAN | CKNNRPS | SGRDSSGFQVF |
| nd | 0/3 | EGDSLRYYYAN | GKNNRPS | SHPDSSEFQVF |
| nd | 0/3 | EGDSLRLYYAN | GKNNPPS | SLRDSSGFQVF |
| nd | 0/3 | EGDSLRIYYAY | GKNNRPS | VSRDSSGFQVF |
| nd | 0/3 | EGDSARYYYAS | GKNNRPS | SSRDSSGFQVF |
| nd | 0/3 | EGDSLRYYYAN | GKLNRPS | SSRDSSGFCVF |
| nd | 0/3 | EGDSLRYYYIN | GKNNRPS | SSRDSSAFQWF |
| nd | 0/3 | EGDHMRYYYAN | GKNNRPS | SSRDSSLFQVF |
| nd | 0/3 | EGDSLRYYYFN | SKNNRPS | SYRDSSGFQVF |
| nd | 0/3 | EGDSLRPYYAP | FKNNRPS | SSRDSSGFQVF |
| nd | 0/3 | EGDWLRYYYAT | GKNNRPS | GSRDSSGFQVF |
| nd | 0/3 | EGDSLRYYYAH | GKNNRPS | SSEDSEGFQVF |

Top 5 of the variants detected in all replicates, tightest first:

CDR-L1	CDR-L2	CDR-L3	Kd	replicates with signal
EGDSLRYYEAN	GKNNRPS	SFRDSSGFQVR	21 nM	3/3
EGDSLRYYTAN	GKNERPS	SSRDSSLFQVF	44 nM	3/3
EGDSLWYTYAN	GKNNRPS	SSRDSSGFFVF	130 nM	3/3
EGDSVRYYYAY	GKNNRPK	SSRDSSGFQVF	170 nM	3/3
EGDSLRYYYAN	GANNRPS	SSRDSSGFQVE	170 nM	3/3